Data reported in patent publication US8283291B2, “Herbicidal composition” (Kumiai Chemical Industry Co., Ltd., priority 2006, dated 2012).

What was measured:
soybean (GLXMA) = assay: Test 1 on herbicidal effects against weeds and phytotoxicity by upland soil treatment; assay type: in vivo; conditions: 50 gai/ha, 28th day
Procedure: (§1) In a plastic pot of 14 cm in length×23 cm in width×8 cm in depth, upland soil was filled, and seeds of soybean (GLXMA), corn (ZEAMX), Ipomoea lacunosa L. (IPOLA) and velvetleaf (ABUTH) were sown and covered with soil. […] Thereafter, cultivation was carried out in a greenhouse, and on the 28th day after the treatment, the herbicidal effects and phytotoxicity were examined in accordance with the standards as identified in Table 15.

corn (ZEAMX) = assay: as above; assay type: in vivo; conditions: 50 gai/ha, 28th day
Procedure: as §1

CC(C)C1(C)N=C(c2nc3ccccc3cc2C(=O)O)NC1=O (centres unmarked) [Imazaquin]
phytotoxicity GLXMA (soybean (GLXMA)): 0 (Herbicidal effect or phytotoxicity of at least 0% and less than 10%) | phytotoxicity ZEAMX (corn (ZEAMX)): 6 (Herbicidal effect or phytotoxicity of at least 60% and less than 70%)
